Our source for the Ki values is publication PMC3364022.

By UniProt entry, the sequences of proteins in these tests, tags left out.
Mcl-1 (Homo sapiens), Q07820, UniProt Q07820, whole entry: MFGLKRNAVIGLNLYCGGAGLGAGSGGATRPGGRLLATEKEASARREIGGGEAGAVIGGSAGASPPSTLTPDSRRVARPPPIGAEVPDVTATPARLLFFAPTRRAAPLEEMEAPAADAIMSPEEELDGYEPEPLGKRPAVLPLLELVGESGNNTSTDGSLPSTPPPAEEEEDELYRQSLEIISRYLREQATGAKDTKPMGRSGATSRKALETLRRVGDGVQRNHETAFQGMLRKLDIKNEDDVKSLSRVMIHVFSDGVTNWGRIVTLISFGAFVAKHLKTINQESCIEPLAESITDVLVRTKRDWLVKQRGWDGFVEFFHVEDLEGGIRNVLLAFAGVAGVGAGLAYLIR

This experiment deals with Mcl-1 (Homo sapiens), Q07820. The experiment can be described thus: competition FP. As to conditions: modification not given.

A value given as a limit tells only on which side of the number the result lay.

B1: Bim BH3 18-mer peptide 1 BH3, O43521 (peptide)
chain: IWIAQELRRIGDEFNAYY
As a reminder, the Ki is a measure of affinity in units of concentration, obtained from inhibition or displacement. On to B1, for which the Ki was under 3 nM.
